Values of other authors in patent US5508310A, “Immunopotentiatory agents and physiologically acceptable salts thereof” (Burroughs Wellcome Co., priority 1992, dated 1996).

Tested on: Pneumocystis carinii
Conditions: AIDS patients; Wofsy 1986; cited from earlier work

trimethoprim-sulphamethoxazole
Incidence of adverse reactions: around 50%
